In ChEMBL document CHEMBL2440066, “Acidic biphenyl derivatives: synthesis and biological activity of a new series of potent 5-HT(4) receptor antagonists” (Bioorg Med Chem, 2013) one finds pKb data, which are given here for one compound.

Amino acid sequences for entries named in this document (tags omitted). A change or cut given only in a name is not applied to a line headed by its entry.
UniProt Q62758: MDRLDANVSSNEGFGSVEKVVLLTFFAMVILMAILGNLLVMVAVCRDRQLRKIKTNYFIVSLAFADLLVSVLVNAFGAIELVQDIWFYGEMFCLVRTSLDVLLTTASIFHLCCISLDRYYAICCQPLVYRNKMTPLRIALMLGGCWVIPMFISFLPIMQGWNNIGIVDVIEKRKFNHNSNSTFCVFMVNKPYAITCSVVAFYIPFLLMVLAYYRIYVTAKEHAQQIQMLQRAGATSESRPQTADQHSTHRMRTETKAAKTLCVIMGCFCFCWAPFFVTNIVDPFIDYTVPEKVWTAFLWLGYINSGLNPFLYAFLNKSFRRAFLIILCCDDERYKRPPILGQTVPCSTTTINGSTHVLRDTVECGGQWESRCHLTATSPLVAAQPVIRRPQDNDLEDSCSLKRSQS

This test deals with 5-hydroxytryptamine receptor 4 (Rattus norvegicus) (UniProt Q62758). In words: Antagonist activity at 5-HT4 receptor in rat carbachol-contracted esophagus muscularis mucosae assessed as inhibition of 5-HT-induced relaxation.

Regarding `COc1ccc(CCCN2CCC(CCC(=O)c3cc(Cl)c(N)c4c3OCCO4)CC2)cc1OC`, the pKb came out at 11.2.
